Assay results: ChEMBL document CHEMBL1133200, “Nonpeptide endothelin antagonists: from lower affinity pyrazol-5-ols to higher affinity pyrazole-5-carboxylic acids” (Bioorg Med Chem Lett, 2000)

The chains behind the UniProt entries cited, without tags or fusion partners.
UniProt P26684, whole entry: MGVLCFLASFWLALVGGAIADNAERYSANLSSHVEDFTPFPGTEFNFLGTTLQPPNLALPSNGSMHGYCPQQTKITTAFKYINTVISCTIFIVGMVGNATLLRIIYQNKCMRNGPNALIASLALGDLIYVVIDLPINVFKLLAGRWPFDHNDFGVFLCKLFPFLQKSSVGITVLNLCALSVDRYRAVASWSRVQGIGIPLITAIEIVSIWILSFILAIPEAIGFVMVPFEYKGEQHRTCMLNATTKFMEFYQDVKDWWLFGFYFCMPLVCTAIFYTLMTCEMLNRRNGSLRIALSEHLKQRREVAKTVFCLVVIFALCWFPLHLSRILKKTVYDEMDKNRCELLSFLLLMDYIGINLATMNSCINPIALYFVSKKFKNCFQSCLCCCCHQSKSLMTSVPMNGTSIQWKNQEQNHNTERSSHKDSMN

Biological target: Endothelin-1 receptor (Rattus norvegicus, UniProt P26684)
Experiment: In vitro inhibition of endothelin binding to endothelin A receptor in rat heart ventricles was measured using a 125-I labelled ET-1 competition assay

IC50: 1500 nM
Compound: COc1cccc(Cn2[nH]c(C(F)(F)F)c(Cc3ccc4c(c3)OCO4)c2=O)c1
